For the assay, the system named is 4T1 R4 cells. Description: Cell viability assay, 4T1 R4 cells. As to conditions: 2 μM 7S9, Chou and Talalay method. The assay is classed as cell-based, mouse. The procedure: MCF-7, MDA-MB-231, MDA-MB-468, Hs578T, 4T1, and HeLa cell lines stably expressing H2B-mCherry and eGFP-tubulin (kindly provided by Dr. Anthony A. Hyman, Max-Planck-Institute for Molecular Cell Biology and Genetics, Dresden, Germany) were cultured in high-glucose Dulbecco's Modified Eagle Medium (DMEM). SK-BR-3 cells were cultured in McCoy's Modified 5a Medium. Hs578T cells were cultured in high-glucose DMEM supplemented with an additional 0.01 mg/mL bovine insulin. […] All mentioned media were supplemented with 10% fetal bovine serum (Gibco) and 1% Penicillin/Streptomycin (Corning), and cells were incubated at 37° C. in a humidified atmosphere containing 5% CO2. HEK293 cells were cultured in HE300 medium (GMEP incorporated, Japan) and maintained in suspension culture with 125 rpm and 8% CO2.
The cancer cells were cultured in a 96-well plate at a confluence of 1000-2000 cells/well with indicated drugs for specific days. When the time was up, the culture medium in the plate was aspirated and replaced with a prepared CellTiter-Glo reagent/DMEM mixture (1:1 mix of CellTiter-Glo reagent and serum-supplemented DMEM). After incubation for 10 min, the luminescence (proportional to the number of living cells) was measured with an ELISA plate reader to determine the cell viability.

Take `C/C(=C\c1csc(C)n1)[C@@H]1C[C@@H]2O[C@]2(C)CCC[C@H](C)[C@H](O)[C@@H](C)C(=O)C(C)(C)[C@@H](O)CC(=O)N1` [Ixabepilone, ixabepilone]: the “CI (combination index), MTA with 7S9” value was 0.49.
